The list shows a part of the results, in another mix than the full data. Some of these compounds have results that are not shown, active ones among them. Active and inactive are the calls of the source. Cut-off read from the data, not from the text of the source: active = inhibition above about 30% (passing the limit was not always enough); inconclusive = no clear call, values can overlap the other calls.

The assay concerns PvdQ acylase [Pseudomonas aeruginosa LESB58]. Nature of the assay: P. aeruginosa PvdQ acylase inhibitors, primary screen, biochemical, fluorescence, plate reader and imaging, single point (AID 488965).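 Note: 0% = vehicle neutral wells and 100% = reference inhibitor wells.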 Conditions: purified PvdQ acylase, at 10 µM, active compounds read high.
Broadly, the inhibition is the relative decrease from the control value, in per cent. With `CN(C)C1(CNC(=O)c2ccc(Br)cc2)CCCCC1`, the inhibition was inactive: -3.96%.
Turning to `COc1cc(C(=O)NCC2(N(C)C)CCCCC2)c([N+](=O)[O-])cc1OC`, the inhibition was inactive: -15%.
Turning to `COc1ccc(Cl)cc1C(=O)NCC1(N(C)C)CCCCC1`, the inhibition is inactive: -10.6%.
Take `COc1cccc(C(=O)NCC2(N3CCCCC3)CCCCC2)c1`: the inhibition was inactive: -7.16%.
In the case of `O=C(NCC1(N2CCCCC2)CCCCC1)c1cccc(Cl)c1`, the inhibition is inactive: -3.77%.
As for `O=C(OC1CN2CCC1CC2)C(CO)(c1ccccc1)c1ccccc1` (stereo not given), the inhibition is inactive: 7.73%.
Consider `COc1ccc(Br)c(C(=O)NCC2(N3CCCCC3)CCCCC2)c1`, for which the inhibition is inactive: -5.05%.
With `O=C(OCCN1CCCC1)C(O)(c1ccccc1)c1ccccc1`, the inhibition was inactive: -6.49%.
Regarding `CC(C)Oc1ccc(C(=O)NCC2(N(C)C)CCCCC2)cc1`, the inhibition was inactive: 4.81%.
In the case of `CN(C)c1cccc(C(=O)NCC2(N(C)C)CCCCC2)c1`, the inhibition was inactive: -8.77%.
Turning to `O=C(NCC1(N2CCCCC2)CCCCC1)c1cc([N+](=O)[O-])ccc1Cl`, the inhibition is inactive: -11.6%.
Regarding `CN1[C@@H]2CC[C@H]1CC(OC(=O)C(O)(c1ccccc1)c1ccccc1)C2` (stereo not given in full), the inhibition was inactive: -14.3%.
`COc1cc(SC)ccc1C(=O)NCC1(N(C)C)CCCCC1`: the inhibition is inactive: 7.38%.
With `CCN(CC)CC(C)C(C)OC(=O)C(O)(c1ccccc1)c1ccccc1` (stereo not given), the inhibition was inactive: -7.65%.
As for `CC(C)N1C(=O)CC2(CCN(CCOC(=O)C(O)(c3ccccc3)c3ccccc3)CC2)C1=O`, the inhibition was inactive: -9.91%.
Consider `Cc1ccc(C(=O)NCC2(N3CCCCC3)CCCCC2)cc1`, for which the inhibition is inactive: -16.5%.
Regarding `CN(C)c1ccc(C(=O)NCC2(N(C)C)CCCCC2)cc1`, the inhibition is inactive: 0.175%.
On to `CN(C)C1CCCC1OC(=O)C(O)(c1ccccc1)c1ccccc1` (stereo not given), for which the inhibition was inactive: -13.4%.
For `Cc1ccccc1C(=O)NCC1(N2CCCCC2)CCCCC1`, the inhibition is inactive: -6.49%.
With `O=C(NCC1(N2CCCCC2)CCCCC1)c1cc(F)c(F)cc1Cl`, the inhibition was inactive: -7.16%.
Take `C=CCN1CCN(CCOC(=O)C(O)(c2ccccc2)c2ccccc2)CC1`: the inhibition is inactive: -21.1%.
In the case of `COc1ccc(C(=O)NCC2(N(C)C)CCCCC2)cc1`, the inhibition is inactive: -13.2%.
On to `O=C(NCC1(N2CCCCC2)CCCCC1)c1cccc(Br)c1`, for which the inhibition was inactive: -5.86%.
For `CCN1CCCC(OC(=O)C2(O)c3ccccc3C=Cc3ccccc32)C1` (stereo not given), the inhibition is inactive: 1.12%.
`Cc1cc(C(=O)NCC2(N3CCCCC3)CCCCC2)ccc1[N+](=O)[O-]`: the inhibition is inactive: -12.1%.

Values taken from PubChem BioAssay AID488965 (Broad Institute, 2010).
